# Test results published in ChEMBL document CHEMBL1136055, “3-Heteroaryl-2-pyridones: benzodiazepine site ligands with functional delectivity for alpha 2/alpha 3-subtypes of human GABA(A) receptor-ion channels” (J Med Chem, 2002).
# Amino acid sequences for entries named in this document (tags omitted). Residues count along the entry.
# UniProt P18507, 40-475 limits assumed: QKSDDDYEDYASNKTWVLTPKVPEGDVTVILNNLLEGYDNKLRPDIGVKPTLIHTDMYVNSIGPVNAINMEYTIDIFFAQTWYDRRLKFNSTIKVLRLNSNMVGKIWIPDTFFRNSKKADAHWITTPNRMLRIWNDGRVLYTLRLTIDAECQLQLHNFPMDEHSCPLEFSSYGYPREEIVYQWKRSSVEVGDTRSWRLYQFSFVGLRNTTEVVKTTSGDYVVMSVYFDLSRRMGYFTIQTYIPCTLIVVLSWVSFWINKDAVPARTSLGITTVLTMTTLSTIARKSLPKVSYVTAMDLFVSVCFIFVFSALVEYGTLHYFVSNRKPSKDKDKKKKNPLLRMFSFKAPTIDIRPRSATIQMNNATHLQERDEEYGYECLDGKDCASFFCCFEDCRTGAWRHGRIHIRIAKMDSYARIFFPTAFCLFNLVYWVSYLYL
# UniProt P28472, 26-473 limits assumed: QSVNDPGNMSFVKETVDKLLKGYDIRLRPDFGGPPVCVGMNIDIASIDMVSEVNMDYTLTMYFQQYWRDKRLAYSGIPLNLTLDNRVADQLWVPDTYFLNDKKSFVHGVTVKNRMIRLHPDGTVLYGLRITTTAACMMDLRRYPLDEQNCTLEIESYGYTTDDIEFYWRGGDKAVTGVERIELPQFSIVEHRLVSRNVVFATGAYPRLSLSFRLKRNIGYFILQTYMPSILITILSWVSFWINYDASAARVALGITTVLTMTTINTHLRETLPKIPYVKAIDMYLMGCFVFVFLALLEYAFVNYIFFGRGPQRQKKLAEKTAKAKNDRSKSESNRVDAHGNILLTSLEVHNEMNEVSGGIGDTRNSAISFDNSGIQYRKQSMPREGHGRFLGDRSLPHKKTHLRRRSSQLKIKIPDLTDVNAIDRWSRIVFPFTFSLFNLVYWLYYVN
# UniProt P47869, 29-451 limits assumed: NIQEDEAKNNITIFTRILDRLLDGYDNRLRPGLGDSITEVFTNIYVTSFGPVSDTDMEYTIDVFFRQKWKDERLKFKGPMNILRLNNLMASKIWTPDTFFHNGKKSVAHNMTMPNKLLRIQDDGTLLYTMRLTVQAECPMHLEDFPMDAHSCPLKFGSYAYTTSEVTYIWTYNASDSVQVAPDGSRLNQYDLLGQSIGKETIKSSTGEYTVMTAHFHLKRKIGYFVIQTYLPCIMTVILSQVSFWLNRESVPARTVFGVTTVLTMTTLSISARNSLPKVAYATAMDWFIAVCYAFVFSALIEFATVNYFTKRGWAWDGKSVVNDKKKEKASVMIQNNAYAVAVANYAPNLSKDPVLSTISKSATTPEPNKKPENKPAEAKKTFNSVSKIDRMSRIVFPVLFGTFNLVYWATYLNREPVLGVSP
# UniProt P31644, 32-462 limits assumed: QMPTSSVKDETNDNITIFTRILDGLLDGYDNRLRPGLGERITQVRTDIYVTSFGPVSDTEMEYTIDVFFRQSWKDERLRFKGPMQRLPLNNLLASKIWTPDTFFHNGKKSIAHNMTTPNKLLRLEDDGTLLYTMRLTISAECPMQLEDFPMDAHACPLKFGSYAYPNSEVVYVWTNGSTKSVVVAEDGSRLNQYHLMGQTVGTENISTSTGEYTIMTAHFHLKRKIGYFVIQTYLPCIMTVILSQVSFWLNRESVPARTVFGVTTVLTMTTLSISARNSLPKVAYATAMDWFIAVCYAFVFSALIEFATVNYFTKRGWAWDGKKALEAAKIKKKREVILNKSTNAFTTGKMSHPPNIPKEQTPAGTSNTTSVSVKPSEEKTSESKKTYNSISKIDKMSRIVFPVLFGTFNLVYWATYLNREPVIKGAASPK
# UniProt P14867, 28-456 limits assumed: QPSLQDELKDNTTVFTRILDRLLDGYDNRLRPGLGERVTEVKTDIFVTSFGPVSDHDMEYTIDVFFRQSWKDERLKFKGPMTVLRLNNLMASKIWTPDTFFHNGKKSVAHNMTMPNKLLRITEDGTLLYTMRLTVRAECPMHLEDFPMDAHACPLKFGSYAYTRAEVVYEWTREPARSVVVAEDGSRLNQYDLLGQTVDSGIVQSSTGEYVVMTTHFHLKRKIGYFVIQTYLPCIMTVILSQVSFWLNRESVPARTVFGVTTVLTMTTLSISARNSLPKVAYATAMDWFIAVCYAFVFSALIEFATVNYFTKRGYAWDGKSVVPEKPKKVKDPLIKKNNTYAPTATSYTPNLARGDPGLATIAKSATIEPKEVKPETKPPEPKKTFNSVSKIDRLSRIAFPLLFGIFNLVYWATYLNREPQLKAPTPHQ
# UniProt P34903, 29-492 limits assumed: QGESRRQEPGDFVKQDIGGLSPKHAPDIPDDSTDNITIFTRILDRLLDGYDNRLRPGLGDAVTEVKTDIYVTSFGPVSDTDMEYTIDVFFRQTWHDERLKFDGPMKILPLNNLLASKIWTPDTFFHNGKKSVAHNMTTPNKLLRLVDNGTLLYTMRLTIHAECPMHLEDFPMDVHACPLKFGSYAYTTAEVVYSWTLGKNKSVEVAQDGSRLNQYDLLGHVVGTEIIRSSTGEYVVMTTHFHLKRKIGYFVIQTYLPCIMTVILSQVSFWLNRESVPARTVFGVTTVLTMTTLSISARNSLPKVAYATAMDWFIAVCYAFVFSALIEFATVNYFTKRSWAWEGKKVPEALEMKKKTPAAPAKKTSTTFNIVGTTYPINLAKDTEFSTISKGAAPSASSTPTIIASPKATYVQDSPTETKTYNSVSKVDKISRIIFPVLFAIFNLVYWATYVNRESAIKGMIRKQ
# Key:
# [1] = molecular target: GABA-A receptor; alpha-2/beta-3/gamma-2 (Homo sapiens, UniProt P18507+P28472+P47869); assay: Displacement of [3H]Ro-151788 from human Gamma-aminobutyric acid A receptor alpha-2-beta-3-gamma-2 stably expressed in L(tk-) cells
# [2] = molecular target: GABA-A receptor; alpha-5/beta-3/gamma-2 (Homo sapiens, UniProt P18507+P28472+P31644); assay: Inhibition of [3H]Ro-151788 binding to human GABA A receptor (alpha-5-beta-3-gamma-2) stably expressed in L(tk-) cells.
# [3] = molecular target: GABA-A receptor; alpha-1/beta-3/gamma-2 (Homo sapiens, UniProt P14867+P18507+P28472); assay: Inhibition of [3H]Ro-151788 binding to human GABA A receptor (alpha-1-beta-3-gamma-2) stably expressed in L(tk-) cells.
# [4] = molecular target: GABA-A receptor; alpha-3/beta-3/gamma-2 (Homo sapiens, UniProt P18507+P28472+P34903); assay: Binding affinity by displacement of [3H]Ro-151788 from recombinant human gamma-aminobutyric-acid A receptor alpha3,beta3,gamma2 stably expressed in L cells
compound,measurement,setting,value
CNC1=Nc2ccc(Cl)cc2C(c2ccccc2)=[N+]([O-])C1,Ki,[1],0.46 µM
same,Ki,[2],0.32 µM
same,Ki,[3],0.56 µM
same,Ki,[4],0.275 µM
